Assays:
[1] = biological target: T1, DncE (Escherichia coli, UniProt Q6XGD8); assay: HPLC of […]'[…]'-cGAMP and c-di-GMP; conditions: with ATP or as sole substrate (100 µM); 1 mM Mn2+; 50 mM Tris-HCl, pH 7.5, 37 °C
T1 construct: gene dncV

Chains of the proteins cited; added tags and fusions are not shown. Lines headed by an entry give the natural chain unless they say otherwise; changes in a name come on top.
UniProt Q6XGD8: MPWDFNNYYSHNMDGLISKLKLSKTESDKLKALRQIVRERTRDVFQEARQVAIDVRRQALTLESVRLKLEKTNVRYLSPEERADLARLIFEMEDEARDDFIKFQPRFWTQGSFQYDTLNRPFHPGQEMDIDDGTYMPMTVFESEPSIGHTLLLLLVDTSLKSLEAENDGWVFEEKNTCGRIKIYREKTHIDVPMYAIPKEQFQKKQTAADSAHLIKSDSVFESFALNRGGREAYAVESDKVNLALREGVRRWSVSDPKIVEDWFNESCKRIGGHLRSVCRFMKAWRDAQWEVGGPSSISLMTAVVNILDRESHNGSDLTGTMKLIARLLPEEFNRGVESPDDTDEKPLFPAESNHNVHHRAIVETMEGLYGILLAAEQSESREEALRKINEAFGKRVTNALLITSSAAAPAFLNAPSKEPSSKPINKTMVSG

[2] = biological target: T1, DncE; conditions: with GTP or as sole substrate (100 µM); 1 mM Mn2+; 50 mM Tris-HCl, pH 7.5, 37 °C

Row | SMILES | HPLC of 3'3'-cGAMP and c-di-GMP [1] | HPLC of 3'3'-cGAMP and c-di-AMP [2]
1 | Nc1nc2c(ncn2[C@@H]2O[C@H](COP(=O)(O)OP(=O)(O)OP(=O)(O)O)[C@@H](O)[C@H]2O)c(=O)[nH]1 [GTP] | DncV or DncE generated significantly higher levels of both c-di-AMP and c-di-GMP | 
2 | Nc1ncnc2c1ncn2[C@@H]1O[C@H](COP(=O)(O)OP(=O)(O)OP(=O)(O)O)[C@@H](O)[C@H]1O [ATP] |  | DncV or DncE generated significantly higher levels of both c-di-AMP and c-di-GMP

Reference: publication PMC12802263 (mBio, 2025)
